Reference: publication PMC4526890, “Crystal structures of Mycobacterium tuberculosis GlgE and complexes with non-covalent inhibitors” (Scientific Reports, 2015)

Chains of the proteins cited; added tags and fusions are not shown.
UniProt Q9L1K2, whole entry V279S: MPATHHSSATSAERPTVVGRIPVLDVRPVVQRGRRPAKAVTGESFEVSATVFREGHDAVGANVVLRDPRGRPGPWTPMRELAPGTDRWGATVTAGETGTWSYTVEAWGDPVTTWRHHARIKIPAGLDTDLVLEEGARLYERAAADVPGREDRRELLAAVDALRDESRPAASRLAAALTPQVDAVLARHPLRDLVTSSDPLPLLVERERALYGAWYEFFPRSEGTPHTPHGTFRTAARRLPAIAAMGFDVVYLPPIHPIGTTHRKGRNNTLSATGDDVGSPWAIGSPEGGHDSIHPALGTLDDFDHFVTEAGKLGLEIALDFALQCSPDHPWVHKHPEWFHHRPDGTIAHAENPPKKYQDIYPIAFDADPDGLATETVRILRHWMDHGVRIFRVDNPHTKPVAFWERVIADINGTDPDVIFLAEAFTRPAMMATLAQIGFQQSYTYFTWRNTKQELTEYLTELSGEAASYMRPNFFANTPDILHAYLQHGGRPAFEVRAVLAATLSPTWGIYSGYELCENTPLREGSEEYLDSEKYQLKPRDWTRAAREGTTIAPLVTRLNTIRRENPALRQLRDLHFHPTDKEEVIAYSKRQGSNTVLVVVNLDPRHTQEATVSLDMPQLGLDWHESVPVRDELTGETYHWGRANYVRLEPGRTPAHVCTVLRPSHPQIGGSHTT

Target: T1, Sco GlgEI (Streptomyces coelicolor, UniProt Q9L1K2, V279S)
T1 construct: gene glgE1
Assay: X-ray crystal structure, […] Å co-crystal
Conditions: 18 mM ligand; pH 7.0 sodium citrate; M1P donor site (-1/-2 subsites and phosphate site)

O=P(O)(O)C[C@H]1O[C@H](CO)[C@@H](O[C@H]2O[C@H](CO)[C@@H](O)[C@H](O)[C@H]2O)[C@H](O)[C@H]1O [MCP, α-maltose-C-phosphonate]
X-ray crystal structure, 1.9 Å co-crystal: This compound was co-crystallized with the Sco GlgEI-V279S to characterize the molecular basis of this inhibition
